Laboratory results from paper PMC4684357, “Comparative Evaluation of the Antimicrobial Activity of Different Antimicrobial Peptides against a Range of Pathogenic Bacteria” (PLoS ONE, 2015).
Read-outs that look alike come from different tables or passages of the source.

Experiments:
E. coli ATCC25922 [1] = format: cell-based, Escherichia coli; details: E. coli ATCC25922 wild-type (Table 8, LPS series); CLSI; triplicates
Description: The Yersinia ruckeri strain was kindly provided by Prof. Kurt Buchmann, University of Copenhagen, Faculty of Health and Medical Sciences, and the Flavobacterium psychrophilum strain was kindly provided by Prof. Inger Dalsgaard, DTU, Denmark. BW25113 is the Escherichia coli wild-type strain, a derivative of the F^-,λ^- E. coli K12 strain BD792 which was used in generating the KEIO collection. E. coli ATCC25922 is a clinical isolate, serotype O6 and is often used as control strain in antimicrobial susceptibility testing. All strains were grown in Mueller-Hinton-II medium, except L. monocytogenes which was grown in BHI medium and F. psychrophilum which was grown in TYES medium (Tryptone yeast extract plus salts). […]
(§1) Briefly, liquid Mueller-Hinton-II medium containing increasing concentrations of AMPs is inoculated with a defined number of cells (approx. 10^5 CFUs/ml) in 96-well microtiter plates (polypropylene), whereas each plate also includes a positive growth control and a negative control (sterile control). After incubation, the MIC is determined by the lowest concentration showing no visible growth. […]
All the MIC measurements were carried out in duplicate. The MIC of the reference antibiotics was determined by the use of Sensititre panels (Trek Diagnostic Systems Ltd, East Grinstead, UK).

E. coli ATCC25922 [2] = details: test strain E. coli ATCC25922, average of five independent experiments
Description: as §1, with “The minimum inhibitory concentrations (MICs) of the AMPs were measured in 96-well microtiter plates according to the Clinical and Laboratory Standards Institute (CLSI, formerly National Committee for Clinical Laboratory Standards [NCCLS]). Briefly,” for “Briefly,”, “growth. All plates were incubated for 18–20 hours, except the F. psychrophilum plates which were incubated for 72 hours.” for “growth.”

Measured: Antimicrobial Activity MIC

CC[C@H](C)[C@H](NC(=O)CN)C(=O)NCC(=O)N[C@@H](C)C(=O)N[C@H](C(=O)N[C@@H](CC(C)C)C(=O)N[C@@H](CCCCN)C(=O)N[C@H](C(=O)N[C@@H](CC(C)C)C(=O)N[C@H](C(=O)N[C@H](C(=O)NCC(=O)N[C@@H](CC(C)C)C(=O)N1CCC[C@H]1C(=O)N[C@@H](C)C(=O)N[C@@H](CC(C)C)C(=O)N[C@H](C(=O)N[C@@H](CO)C(=O)N[C@@H](Cc1c[nH]c2ccccc12)C(=O)N[C@H](C(=O)N[C@@H](CCCCN)C(=O)N[C@@H](CCCNC(=N)N)C(=O)N[C@@H](CCCCN)C(=O)N[C@@H](CCCNC(=N)N)C(=O)N[C@@H](CCC(N)=O)C(=O)N[C@@H](CCC(N)=O)C(N)=O)[C@@H](C)CC)[C@@H](C)CC)[C@@H](C)O)[C@@H](C)O)C(C)C)C(C)C [Melittin, reference compound]
16 µg/mL: E. coli ATCC25922 [1] | E. coli ATCC25922 [2]; 70°C, incubation 0 min (untreated control) | E. coli ATCC25922 [2]; 90°C, incubation 0 min (untreated control) | E. coli ATCC25922 [2]; AMP heated at 70°C for 5 min | E. coli ATCC25922 [2]; AMP heated at 70°C for 15 min | E. coli ATCC25922 [2]; AMP heated at 70°C for 30 min | E. coli ATCC25922 [2]; AMP heated at 90°C for 5 min | E. coli ATCC25922 [2]; AMP heated at 90°C for 15 min | E. coli ATCC25922 [2]; AMP heated at 90°C for 30 min
